Measured values published in patent US20240360194A1, “New Peptides as Potent and Selective GIP Receptor Agonists” (Sanofi, priority 2021, published 2024).

Protein sequences, listed by entry. Tags and fused reporters are not part of them. Residues count along the entry.
UniProt P43220, 24-463: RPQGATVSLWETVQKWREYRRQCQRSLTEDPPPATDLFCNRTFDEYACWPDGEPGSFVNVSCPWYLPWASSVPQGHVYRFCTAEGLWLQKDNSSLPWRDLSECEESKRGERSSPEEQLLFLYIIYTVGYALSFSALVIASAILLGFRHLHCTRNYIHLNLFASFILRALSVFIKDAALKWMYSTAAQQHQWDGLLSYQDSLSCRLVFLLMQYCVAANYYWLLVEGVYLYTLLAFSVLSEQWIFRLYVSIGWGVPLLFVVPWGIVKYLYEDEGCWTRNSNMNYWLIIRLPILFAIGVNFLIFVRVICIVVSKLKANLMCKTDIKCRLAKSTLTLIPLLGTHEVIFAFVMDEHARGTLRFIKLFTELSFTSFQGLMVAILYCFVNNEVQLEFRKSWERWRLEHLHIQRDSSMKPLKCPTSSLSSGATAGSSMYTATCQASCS

Legend:
[1] = biological target: T1, human GIP receptor (hGIPR) (Homo sapiens, UniProt P48546); assay: Binding assay, displacement of [125I]GIP from HEK-293 membranes over-expressing GIPR (SPA)
T1 sequence (P48546 22-466): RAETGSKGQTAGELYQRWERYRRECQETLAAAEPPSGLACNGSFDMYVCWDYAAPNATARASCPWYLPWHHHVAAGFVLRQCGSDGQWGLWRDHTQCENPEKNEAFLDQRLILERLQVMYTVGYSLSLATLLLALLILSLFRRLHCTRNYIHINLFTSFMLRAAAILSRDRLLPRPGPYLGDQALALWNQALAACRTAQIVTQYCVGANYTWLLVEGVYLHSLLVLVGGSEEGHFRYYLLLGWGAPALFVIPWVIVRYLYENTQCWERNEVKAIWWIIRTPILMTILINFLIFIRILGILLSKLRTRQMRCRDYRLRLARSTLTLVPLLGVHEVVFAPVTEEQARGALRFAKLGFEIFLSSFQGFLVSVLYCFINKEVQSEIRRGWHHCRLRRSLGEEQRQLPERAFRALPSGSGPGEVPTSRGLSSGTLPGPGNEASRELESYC
Method: (§1) (1) Preparation of Membranes from HEK-293 Cells Over-Expressing GIPR or GLP-1R
(§2) HEK-293 cells recombinantly over-expressing GIPR or GLP-1R were grown to 50% confluency, washed with warm 1×PBS (Gibco) and detached in HEPES/EDTA-buffer (100 mM HEPES pH 7.5, 5 mM EDTA). Cells were harvested by centrifugation at 4° C. and 3000×g and the pellets were stored at −80° C. until further processing.
(§3) After thawing on ice, pellets were resuspended in HEPES/EDTA-buffer and homogenized on ice for 1 min using Ultra-Turray T25. After subsequent sonification the cell debris was removed by centrifugation at 1000×g and 4° C. Supernatants were then ultra-centrifuged at 100000×g and 4° C. under vacuum for 30 min. Pellets were resuspended in HEPES/EDTA/NaCl-buffer (20 mM HEPES, 1 mM EDTA, 150 mM NaCl; add 1 Complete Mini Protease inhibitor cocktail to 10 ml buffer) and protein content was determined via BCA-Protein assay.
(§4) (2) Measurement of Binding Activity of Test Compounds to Human GIPR or GLP-1R

[2] = biological target: T1, human GIP receptor (hGIPR); assay: In vitro cellular cAMP assay for GIP receptor efficacy (HEK-293 cell line over-expressing receptor); format: cell-based
[3] = biological target: human GLP-1 receptor (hGLP-1R) (Homo sapiens, UniProt P43220); assay: Binding assay, displacement of [125I]GLP-1 from HEK-293 membranes over-expressing GLP-1R (SPA)
Method: as §1, §2, §3, §4

[4] = Solubility assessment (UHPLC-UV of supernatant, target 10 mg/ml); format: physicochemical; details: Solubility buffer system A: 100 mM phosphate buffer pH 7.4; read-out: Soluble amount
Method: Prior to the solubility measurement of a peptide batch, its purity was determined through UHPLC/MS.
Therefore, solutions from solid samples were prepared in a buffer system with a concentration of 10 mg/ml compound based on the previously determined % purity: • Solubility buffer system A) 100 mM phosphate buffer pH 7.4 • Solubility buffer system B) 8 mM phosphate buffer pH 7.4, 14 mg/ml propylene glycol, 5.5 mg/ml phenol • Solubility buffer system C) 100 mM phosphate buffer pH 7.4, 2.7 mg/ml m-cresol
UHPLC-UV was performed after 1 h of gentle agitation and storage at 5° C. overnight (24 h) from the supernatant, which was obtained after 15 min of centrifugation at 2500 RCF (relative centrifugal acceleration).
The different UV extinction coefficients of sample and reference peptide were calculated based on the different amino acid sequences and considered in the concentration calculation.
The analytical method used was Analytical UHPLC Method A.
Peptide samples were prepared in solubility buffer system A or C and solubility was assessed as described in Methods.

Compound CC[C@H](C)[C@H](NC(=O)[C@H](CCC(=O)O)NC(=O)[C@H](CCC(=O)O)NC(=O)[C@H](CCCCNC(=O)COCCOCCNC(=O)COCCOCCNC(=O)CC[C@H](NC(=O)CCCCCCCCCCCCCCCCC(=O)O)C(=O)O)NC(=O)C(C)(C)NC(=O)[C@@H](NC(=O)[C@H](CO)NC(=O)[C@H](CC(C)C)NC(=O)[C@H](CC(=O)O)NC(=O)[C@H](CO)NC(=O)[C@@H](NC(=O)[C@@](C)(CC)NC(=O)[C@@H](NC(=O)CNC(=O)[C@H](CCC(=O)O)NC(=O)C(C)(C)NC(=O)[C@@H](N)Cc1ccc(O)cc1)[C@@H](C)O)[C@@H](C)CC)[C@@H](C)CC)C(=O)N[C@@H](Cc1c[nH]cn1)C(=O)N[C@@H](CCC(N)=O)C(=O)NC(C)(C)C(=O)N[C@@H](CCC(=O)O)C(=O)N[C@@H](Cc1ccccc1)C(=O)N[C@H](C(=O)N[C@@H](CCC(=O)O)C(=O)N[C@@H](Cc1c[nH]c2ccccc12)C(=O)N[C@@H](CC(C)C)C(=O)N[C@@H](CC(C)C)C(=O)N[C@@H](C)C(=O)N[C@@H](CCC(N)=O)C(=O)N[C@@H](CCCCN)C(=O)N1CCC[C@H]1C(=O)N[C@@H](CO)C(=O)N[C@@H](CO)C(=O)NC(C)(C)C(=O)N[C@@H](CCCCN)C(=O)N1CCC[C@H]1C(=O)N1CCC[C@H]1C(=O)N1CCC[C@H]1C(=O)N[C@@H](CCCCN)C(N)=O)[C@@H](C)CC [SEQ ID NO: 20, H2N-Y-Aib-E-G-T-Iva-I-S-D-L-S-I-Aib-K[{AEEA}2-gGlu-C18OH]-E-E-I-H-Q-Aib-E-F-I-E-W-L-L-A-Q-K-P-S-S-Aib-K-P-P-P-K-NH2] has an IC50 [1] of 0.3 nM, an EC50 [2] of 0.0431 nM and an IC50 [3] of 304 nM. The solubility [4] was greater than 8800 µg/mL.
